Reference: ChEMBL document CHEMBL5137039, “Therapeutic potentials and structure-activity relationship of 1,3-benzodioxole N-carbamothioyl carboxamide derivatives as selective and potent antagonists of P2X4 and P2X7 receptors” (Eur J Med Chem, 2022)

Sequences of proteins named here, by UniProt entry; tags and fusion partners are left off. A change or cut given only in a name is not applied to a line headed by its entry.
UniProt Q93086: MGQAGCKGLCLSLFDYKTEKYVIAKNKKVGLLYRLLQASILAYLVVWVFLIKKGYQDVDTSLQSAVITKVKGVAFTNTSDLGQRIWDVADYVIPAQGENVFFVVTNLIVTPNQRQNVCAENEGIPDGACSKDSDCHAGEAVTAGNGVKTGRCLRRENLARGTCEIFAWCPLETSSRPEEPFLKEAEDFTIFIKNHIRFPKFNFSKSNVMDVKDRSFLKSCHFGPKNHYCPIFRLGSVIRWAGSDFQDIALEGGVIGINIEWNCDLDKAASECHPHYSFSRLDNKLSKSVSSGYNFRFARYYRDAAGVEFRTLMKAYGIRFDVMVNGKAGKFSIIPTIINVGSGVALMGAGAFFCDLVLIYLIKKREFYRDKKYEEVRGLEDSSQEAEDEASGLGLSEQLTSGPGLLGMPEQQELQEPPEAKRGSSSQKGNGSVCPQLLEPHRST
UniProt Q99572: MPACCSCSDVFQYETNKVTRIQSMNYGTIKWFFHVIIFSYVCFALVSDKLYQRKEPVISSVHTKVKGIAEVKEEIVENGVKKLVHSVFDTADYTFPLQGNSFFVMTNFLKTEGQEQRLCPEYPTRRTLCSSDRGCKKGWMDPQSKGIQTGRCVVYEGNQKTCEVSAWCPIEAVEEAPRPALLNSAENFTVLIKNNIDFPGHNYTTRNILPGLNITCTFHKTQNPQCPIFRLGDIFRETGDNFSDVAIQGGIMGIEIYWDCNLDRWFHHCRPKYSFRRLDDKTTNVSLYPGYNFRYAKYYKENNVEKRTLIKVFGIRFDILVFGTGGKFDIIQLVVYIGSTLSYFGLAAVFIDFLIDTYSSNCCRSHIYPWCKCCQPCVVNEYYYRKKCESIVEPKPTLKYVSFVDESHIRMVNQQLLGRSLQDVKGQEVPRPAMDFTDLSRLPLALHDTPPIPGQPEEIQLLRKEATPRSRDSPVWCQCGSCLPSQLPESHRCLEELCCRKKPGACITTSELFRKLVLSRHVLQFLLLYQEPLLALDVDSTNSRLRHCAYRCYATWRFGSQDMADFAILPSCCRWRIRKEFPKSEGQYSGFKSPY

Key:
Type in all cases: cell-based
Parameters in all cases: scale not given: the % may be the effect or the level left
P2X purinoceptor 5 = P2X purinoceptor 5 (Homo sapiens, UniProt Q93086); assay: Antagonist activity against human P2X5R stably transfected in human 1321N1 cells at 50 uM incubated for 30 mins by Fura-2 AM staining based calcium influx assay relative to control
P2X purinoceptor 7 = P2X purinoceptor 7 (Homo sapiens, UniProt Q99572); assay: Antagonist activity against human P2X7R stably transfected in human 1321N1 cells at 50 uM incubated for 30 mins by Fura-2 AM staining based calcium influx assay relative to control
[1] = molecular target: T1, P2X purinoceptor 4 (Homo sapiens) (UniProt Q99571); assay: Antagonist activity against human P2X4R stably transfected in human 1321N1 cells at 50 uM incubated for 30 mins by Fura-2 AM staining based calcium influx assay relative to control
T1 sequence (whole entry): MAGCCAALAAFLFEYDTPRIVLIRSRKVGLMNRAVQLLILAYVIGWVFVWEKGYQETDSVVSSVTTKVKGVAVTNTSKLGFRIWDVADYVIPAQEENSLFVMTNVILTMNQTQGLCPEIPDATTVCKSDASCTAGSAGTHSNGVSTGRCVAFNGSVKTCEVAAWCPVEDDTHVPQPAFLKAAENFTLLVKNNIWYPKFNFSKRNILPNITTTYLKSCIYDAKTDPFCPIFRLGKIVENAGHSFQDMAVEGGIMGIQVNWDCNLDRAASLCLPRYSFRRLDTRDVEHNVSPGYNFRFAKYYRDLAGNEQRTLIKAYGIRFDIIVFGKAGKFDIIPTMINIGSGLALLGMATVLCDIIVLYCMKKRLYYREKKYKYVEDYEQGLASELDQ

Activity (P2X purinoceptor 5) [%]	Activity (P2X purinoceptor 7) [%]	Activity [1] [%]	Activity (P2X purinoceptor 7; filed as antagonist) [%]	Compound
32	30			O=C(NC(=S)Nc1ccccc1O)c1ccc2c(c1)OCO2
28		32	42	O=C(NC(=S)Nc1cccc(O)c1)c1ccc2c(c1)OCO2
